Only a part is listed here, and it is no random draw. Calls of active or inactive are those of the source.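 How the source made its calls: active means normalized GFP-positive differentiation at or above the plate's own cutoff, the solvent-only control mean plus 3 SD; inconclusive means no clear call, values can overlap the other calls; inactive means the rest.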

The nature of this test: induction of myeloid progenitor differentiation, primary screen, cell-based, flow cytometry, MLPCN library (AID 624256). The settings on record: ER-HoxA9 myeloid progenitors, lysozyme-GFP differentiation, at 10 µM.
`O=[N+]([O-])c1cc([N+](=O)[O-])c(-n2nnc3ccccc32)c([N+](=O)[O-])c1`: the result was inactive.

Regarding `CCOP(=O)(NC(=NC(C)c1ccccc1)NC(C)c1ccccc1)OCC` (stereo unspecified), the compound was classed as inactive.

Consider `Nc1ccc(CCCCOc2ccccc2)cc1.O=[N+]([O-])c1cc([N+](=O)[O-])c(O)c([N+](=O)[O-])c1`, for which the compound was classed as inactive.

Take `O=P1(Nc2ccccn2)COc2ccccc2OC1`: the result was inactive.

As for `CCC1=CC2Cc3nc4ccc(Cl)cc4c(N)c3C(C1)C2` (stereo unspecified), the outcome was inactive.

As to `O=C(O)C(O)c1ccc(N(CCCl)CCCl)cc1.c1ccncc1` (stereo unspecified), the call was inactive.

In the case of `CCOP(=O)(Nc1ccc(C)cn1)OCC`, the compound was called inactive.

As for `CN(CCCl)Cc1cc(Cl)c(NC2=NCCN2)c(Cl)c1`, the outcome was inactive.

As to `CC(C)(C)C(=O)NC(Sc1ncccn1)C(Cl)(Cl)Cl` (stereo unspecified), the compound was classed as inactive.

Regarding `O=P1(N(CCCl)CCCl)NCCC(C(F)(F)F)O1` (stereo unspecified), the result was inactive.

Regarding `Clc1n[nH]nc1-c1nn[nH][15n]1`, the compound was classed as inactive.

In the case of `CN(Cc1cccnc1)C(=O)COc1ccc(Cl)c(Cl)c1.O=[N+]([O-])c1cc([N+](=O)[O-])c(O)c([N+](=O)[O-])c1`, the compound was classed as inactive.

Take `O=[N+]([O-])c1cc([N+](=O)[O-])c(-c2cnn(-c3ccccc3)c2)c([N+](=O)[O-])c1`: the compound was classed as inactive.

With `COc1ccccc1CNC(=O)COC(=O)C(O)(c1ccccc1)c1ccccc1`, the compound was called inactive.

On to `Cc1ccc(S(=O)(=O)N(CCCN)CCCc2c(C)nc(N)[nH]c2=O)cc1.O=[N+]([O-])c1cc([N+](=O)[O-])c(O)c([N+](=O)[O-])c1`, for which the outcome was inactive.

Turning to `CC(C)/C=N\N=C(\N)N[N+](=O)[O-]`, the result was inactive.

`CN(C(=O)Cc1ccc(Cl)c(Cl)c1)[C@@H]1CCCC[C@H]1N1CCCC1`: the call was inactive.

As for `CC1(CBr)Cn2c(nc3ccccc3c2=O)S1` (stereo unspecified), the compound was called inactive.

For `Cc1nc2ccc3ccccc3c2s1.O=[N+]([O-])c1cc([N+](=O)[O-])c(O)c([N+](=O)[O-])c1`, the compound was classed as inactive.

In the case of `CC1CCC(C(C)C)C(OP(=O)(Nc2ccccn2)c2ccccc2)C1` (stereo unspecified), the outcome was inactive.

`Cc1ccc(C(=O)OC2CN3CCC2CC3)cc1` (stereo unspecified): the result was inactive.

Regarding `Cc1nn(-c2ccccc2)c2c1P(=O)(N1CCOCC1)N(C)C(c1ccccc1)=N2` (stereo unspecified), the call was inactive.

For the compound `COc1cc(C2NCCC3(OCCO3)C2(C)C)cc(OC)c1OC.O=[N+]([O-])c1cc([N+](=O)[O-])c(O)c([N+](=O)[O-])c1` (stereo unspecified), the outcome was inactive.

In the case of `CCOC(=O)C(CC)C1=NC(C)(C)Cc2ccccc21.O=[N+]([O-])c1cc([N+](=O)[O-])c(O)c([N+](=O)[O-])c1` (stereo unspecified), the compound was called inactive.

`CN(C)C1(CNC(=O)c2ccc(S(C)(=O)=O)cc2)CCCCC1`: the call was inactive.

Take `CC1=C2N=C(C=C3N=C(C(C)=C4[N-][C@@](C)([C@@H]5N=C1[C@](C)(CCC(=O)NC[C@@H](C)OP(=O)([O-])O[C@H]1[C@@H](O)[C@@H](n6cnc7cc(C)c(C)cc76)O[C@@H]1CO)[C@H]5CC(N)=O)[C@@](C)(CC(N)=O)[C@@H]4CCC(N)=O)[C@@](C)(CC(N)=O)[C@@H]3CCC(N)=O)C(C)(C)[C@@H]2CCC(N)=O.[C-]#N.[Co+3]`: the result was inactive.

Consider `O=[N+]([O-])c1cc([N+](=O)[O-])c(Nc2nnnn2CCO)c([N+](=O)[O-])c1`, for which the outcome was inactive.

Regarding `CCCC1OP(=O)(Nc2ccccc2)OCC1CC` (stereo unspecified), the compound was classed as inactive.

`O=C(/C=C/c1ccccc1)OC1CN2CCC1CC2` (stereo unspecified): the outcome was inactive.

For the compound `COc1ccccc1OP(C)(=O)Nc1c(C)cccc1C` (stereo unspecified), the outcome was inactive.

As to `CN1CCCCC1COC(=O)C1(O)c2ccccc2CCc2ccccc21` (stereo unspecified), the outcome was inactive.

For `O=P1(Nc2ncccn2)COc2ccccc2OC1`, the call was inactive.

Consider `CCCOc1ccc(NP(C)(=O)Oc2ccc(Cl)cc2)cc1` (stereo unspecified), for which the call was inactive.

On to `Nc1cccc([As](=O)(O)c2ccccc2)c1`, for which the result was inactive.

Take `CP(=O)(Nc1ccc(SC(F)(F)F)cc1)Oc1ccccc1` (stereo unspecified): the call was inactive.

For `COc1ccc(-c2ccccn2)cc1.O=[N+]([O-])c1cc([N+](=O)[O-])c(O)c([N+](=O)[O-])c1`, the call was inactive.

With `Cc1ccc(OCC(=O)OC2CN3CCC2CC3)cc1` (stereo unspecified), the call was inactive.

Consider `O=[As](O)(c1cccs1)c1cccs1`, for which the compound was classed as inactive.

With `O=P1(Nc2ccc(Br)cn2)COc2ccccc2OC1`, the call was inactive.

`NS(=O)(=O)c1cccc(NC(=O)COC(=O)C(O)(c2ccccc2)c2ccccc2)c1`: the compound was called inactive.

For the compound `O=P(Nc1nccs1)(Oc1ccccc1)Oc1ccccc1`, the compound was classed as inactive.

Consider `O=P(Nc1nccs1)(c1ccccc1)c1nc2ccccc2s1` (stereo unspecified), for which the result was inactive.

With `CCOP1(=S)c2c(C)nn(CCC#N)c2N=C(c2ccccc2F)N1C` (stereo unspecified), the compound was classed as inactive.

With `O=C(O)c1cccc(Nc2c([N+](=O)[O-])cc([N+](=O)[O-])cc2[N+](=O)[O-])c1`, the result was inactive.

`CS(=O)(=O)c1cc([N+](=O)[O-])c2no[n+]([O-])c2c1`: the call was inactive.

`Nc1ccccc1[As](=O)(O)c1ccccc1`: the call was inactive.

For `O=C(O)COc1ccc([As](=O)(O)O)cc1[N+](=O)[O-]`, the outcome was inactive.

For the compound `NC(=O)Nc1ccc([As](=O)(O)O)cc1`, the call was inactive.

For `CN(C(=O)Cc1ccccc1)[C@@H]1CC[C@]2(CCCO2)C[C@H]1N1CCCC1`, the compound was classed as inactive.

In the case of `CCOP1(=S)c2c(C)nn(CCC#N)c2N=C(c2ccc(F)cc2)N1C` (stereo unspecified), the call was inactive.

With `N#CCCN(C(=O)COC(=O)C(O)(c1ccccc1)c1ccccc1)c1ccc(F)cc1`, the call was inactive.

For `CC1=NCCc2c1[nH]c1ccccc21.O=[N+]([O-])c1cc([N+](=O)[O-])c(O)c([N+](=O)[O-])c1`, the compound was classed as inactive.

On to `CN(C(=O)Cc1ccc(Cl)c(Cl)c1)[C@H]1CC[C@@]2(CCCO2)C[C@@H]1N1CCCC1`, for which the outcome was inactive.

As for `O=[N+]([O-])c1ccc2c(c1)nnn2O`, the result was inactive.

As for `O=C(OC1CN2CCC1CC2)c1ccc(Cl)cc1` (stereo unspecified), the result was inactive.

Consider `COc1ccccc1OP(C)(=O)Nc1cccc(Br)c1` (stereo unspecified), for which the call was inactive.

Consider `CS(=O)(=O)c1ccc(Cl)c(NC(=O)COC(=O)C(O)(c2ccccc2)c2ccccc2)c1`, for which the compound was called inactive.

As for `O=[As](O)(O)c1cccnc1`, the call was inactive.

For `COc1cc(C(=O)NCC2(N3CCOCC3)CCCCC2)cc(Cl)c1OC(C)C`, the outcome was inactive.

With `Cc1cc(C)cc(OP(C)(=O)Nc2ccc(C)cc2C)c1` (stereo unspecified), the compound was called inactive.

Regarding `Cc1cccc(OCC(=O)OC2CN3CCC2CC3)c1` (stereo unspecified), the compound was classed as inactive.
